Results reported in US20120225135A1 (priority 2010, published 2012).

Key:
[1] = system: Total microbio counts; experiment: Ammonia plant water system, total microbio counts; conditions: previous chlorine program, average
[2] = system: biofilm; conditions: cited from earlier work

chlorine
Total microbio counts [1]: approximately 15,000 organisms/ml | effect on biofilm detachment [2]: very poor to no effect
